{"sequences": {"note": "Amino acid sequences for entries named in this document (tags omitted).", "UniProt P10276, whole entry": "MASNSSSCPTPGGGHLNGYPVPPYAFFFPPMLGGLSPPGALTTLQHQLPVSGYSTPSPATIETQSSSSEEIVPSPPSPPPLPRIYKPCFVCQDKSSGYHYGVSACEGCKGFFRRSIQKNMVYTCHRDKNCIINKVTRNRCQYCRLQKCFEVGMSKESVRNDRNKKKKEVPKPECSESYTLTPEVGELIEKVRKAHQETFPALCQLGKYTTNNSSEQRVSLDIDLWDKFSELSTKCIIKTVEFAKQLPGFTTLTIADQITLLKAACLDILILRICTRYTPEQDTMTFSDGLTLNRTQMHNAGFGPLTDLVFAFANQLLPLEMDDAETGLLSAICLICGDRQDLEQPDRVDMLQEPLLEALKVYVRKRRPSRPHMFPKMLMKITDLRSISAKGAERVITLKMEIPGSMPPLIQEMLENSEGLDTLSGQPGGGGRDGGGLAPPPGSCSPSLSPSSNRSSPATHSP", "UniProt P13631, whole entry": "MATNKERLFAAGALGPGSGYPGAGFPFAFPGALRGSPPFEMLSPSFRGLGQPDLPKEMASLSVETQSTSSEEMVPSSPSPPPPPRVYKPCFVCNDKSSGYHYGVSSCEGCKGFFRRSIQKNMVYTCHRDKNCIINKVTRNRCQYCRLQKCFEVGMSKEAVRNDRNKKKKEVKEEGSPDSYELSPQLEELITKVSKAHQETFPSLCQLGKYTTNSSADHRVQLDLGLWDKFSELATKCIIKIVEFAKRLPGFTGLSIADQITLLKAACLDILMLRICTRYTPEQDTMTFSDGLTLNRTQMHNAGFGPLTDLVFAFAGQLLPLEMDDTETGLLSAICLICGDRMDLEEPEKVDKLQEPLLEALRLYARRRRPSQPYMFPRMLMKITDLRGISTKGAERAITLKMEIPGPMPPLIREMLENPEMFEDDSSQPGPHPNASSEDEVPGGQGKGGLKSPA"}, "source": "paper PMC4836378", "about": "(Journal of medicinal chemistry, 2016)", "key": {"human RARα": {"biological_target": "human RARα (Homo sapiens, UniProt P10276)", "experiment": "Luciferase-based RARα reporter assay", "type": "cell-based"}, "human RARγ": {"biological_target": "human RARγ (Homo sapiens, UniProt P13631)", "experiment": "Luciferase-based RARγ reporter assay", "type": "cell-based"}}}
{"smiles": "CC1(C)CCC(C)(C)c2cc(C3(c4ccc(CCC(=O)O)cc4)SCCS3)ccc21", "note": "[Compound 30, 3-{4-[2-(5,5,8,8-Tetramethyl-5,6,7,8-tetrahydronaphthalen-2-yl)-1,3-dithiolan-2-yl]phenyl}propanoic acid]", "values": [{"measurement": "RARα activation", "setting": "human RARα", "value": "No measurable RARα and RARγ activation was detected"}, {"measurement": "RARγ activation", "setting": "human RARγ", "value": "No measurable RARα and RARγ activation was detected"}]}
